The results in this text go back to patent US8168592B2 (Amgen Inc., priority 2005, dated 2012).

Amino acid sequences for entries named in this document (tags omitted). Residues count along the entry.
UniProt O60894, 27-148: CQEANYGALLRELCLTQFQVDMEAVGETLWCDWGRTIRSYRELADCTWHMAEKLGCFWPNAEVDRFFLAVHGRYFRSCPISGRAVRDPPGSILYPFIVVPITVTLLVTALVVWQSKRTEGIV
UniProt Q16602, 23-461: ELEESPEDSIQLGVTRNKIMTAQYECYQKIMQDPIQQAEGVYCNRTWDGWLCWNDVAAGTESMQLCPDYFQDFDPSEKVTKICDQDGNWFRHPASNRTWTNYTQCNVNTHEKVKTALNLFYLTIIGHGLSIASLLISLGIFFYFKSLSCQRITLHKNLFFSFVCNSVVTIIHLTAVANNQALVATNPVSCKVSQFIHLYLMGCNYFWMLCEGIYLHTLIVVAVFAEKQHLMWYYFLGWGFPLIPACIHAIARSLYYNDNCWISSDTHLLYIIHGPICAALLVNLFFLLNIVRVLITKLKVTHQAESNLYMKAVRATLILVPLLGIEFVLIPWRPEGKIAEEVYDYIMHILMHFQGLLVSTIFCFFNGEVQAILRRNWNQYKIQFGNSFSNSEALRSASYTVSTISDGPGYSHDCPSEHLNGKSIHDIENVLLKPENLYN
UniProt Q63118, 24-464: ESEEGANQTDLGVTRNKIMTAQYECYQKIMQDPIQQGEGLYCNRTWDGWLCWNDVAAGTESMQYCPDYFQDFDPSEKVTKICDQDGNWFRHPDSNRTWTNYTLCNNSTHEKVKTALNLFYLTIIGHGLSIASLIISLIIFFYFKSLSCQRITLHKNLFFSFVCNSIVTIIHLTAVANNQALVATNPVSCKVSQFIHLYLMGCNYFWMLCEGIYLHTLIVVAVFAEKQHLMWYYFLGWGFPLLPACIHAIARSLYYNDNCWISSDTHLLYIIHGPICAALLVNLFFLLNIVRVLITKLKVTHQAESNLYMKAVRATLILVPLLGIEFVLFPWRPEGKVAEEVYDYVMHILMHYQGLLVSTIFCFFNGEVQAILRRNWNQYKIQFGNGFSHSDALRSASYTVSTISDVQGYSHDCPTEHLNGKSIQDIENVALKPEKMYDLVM
UniProt Q9JJ74, 27-148: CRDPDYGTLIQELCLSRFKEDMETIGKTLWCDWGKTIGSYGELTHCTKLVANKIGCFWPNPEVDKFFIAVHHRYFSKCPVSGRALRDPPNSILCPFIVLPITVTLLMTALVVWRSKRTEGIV

Structures are written as SMILES.

Data set [1] concerns the target T1, CGRP1 receptor (human neuroblastoma cell (SK-N-MC) membrane) (Homo sapiens, UniProt O60894+Q16602).
T1 construct: human neuroblastoma cell (SK-N-MC) membrane suspension; purchased PerkinElmer; host or cells: SK-N-MC human neuroblastoma cell membranes (endogenous receptor)
Put plainly: CGRP1 binding assay (125I-hαCGRP displacement). The settings on record: Table 3A. The protocol: CGRP1 binding experiments. […] The plates were incubated at room temperature for 2 hour with shaking at 60 rpm, then the contents of each well were filtered over 0.5% polyethyleneimine (PEI)-treated (at least one hour) GF/C 96-well filter plates. The GF/C filter plates were washed 6 times with ice-cold 50 mM Tris, pH 7.5 and dried in an oven at 55 C for 1 hour. The bottoms of the GF/C plates were then sealed, and 40 μl Microscint™ 20 was added to each well, then the tops of the GF/C plates were sealed with TopSeal™-A, a press-on adhesive sealing film, and the GF/C plates were counted with TopCount NXT (Packard). The data were analyzed by using ActivityBase (IDBS) or Prizm (GraphPad) software.

Data set [2] addresses T2, CGRP1 receptor (Homo sapiens, UniProt O60894+Q16602).
T2 construct: SK-N-MC cells express CRLR and RAMP1, which form CGRP1 receptor; endogenous in cells; host or cells: SK-N-MC human neuroblastoma cells
Put plainly: in vitro CGRP1 receptor mediated cAMP assay in SK-N-MC cells. The settings on record: Table 7; R11 and/or R18 stability analogs, with or without 20 kDa PEG; read-out: IC50. The data set is classed as cell-based. The procedure:
The in vitro cAMP assay employed a human neuroblastoma-derived cell line (SK-N-MC). SK-N-MC cells express CRLR and RAMP1, which form CGRP1 receptor. CGRP1 receptor is a G-protein coupled receptor linked to the stimulatory G-protein, Gs. […] Briefly, two days before the assay, the cells were plated in 96-well plates in growth medium. On the day of the assay cells were rinsed with PBS followed by the addition of 60 μl of plasma free medium for 15 minutes at room temperature. […] The medium was then removed and the cells were lysed with 100 μl lysis buffer for 30 minutes at 37° C. for 30 minutes. Using a Tropix ELISA kit (Applied Biosystems, Foster City, Calif.), a cAMP-AP conjugate was diluted (1:100) and added (30 μl) to each well of a 96-well ELISA plate. An aliquot of the lysis buffer from the cell plate was then added to the ELISA plate followed by an aliquot of the cAMP antibody. This mixture was incubated for 1 hour at room temperature with gentle shaking. The ELISA plate was then washed 6× with wash buffer followed by the additions of a substrate enhancer. This mixture was incubated for 30 minutes at room temperature and then read on a MicroBeta Jet or EnVision plate reader. The results were analyzed using Prism (GraphPad).
On the technique in general: cAMP levels reflect the balance of adenylyl cyclase and phosphodiesterase activity.

Data set [3] in a line: in vitro stability in 10% rat plasma, LC-MS/MS. The settings on record: room temperature, 100 ng/ml. The data set is classed as in vitro ADME. The procedure:
Consequently, the stability of select, non-PEGylated analogs was evaluated in vitro in the presence of 10% rat or human plasma. Briefly, samples of each peptide were diluted to 100 ng/ml into PBS containing 10% of rat or human plasma. Each sample was then incubated at room temperature and analyzed by LC-MS/MS to quantitate the intact peptide remaining at select time points over 6 hours.
The CGRP peptide analogs tested were the di-substituted (R11hR/R18hR) analog (Table 7, SEQ ID NO:25), the di-substituted (R11Cit/R18Cit) analog (Table 7, SEQ ID NO:31), the di-substituted (R11Q/R18Q) analog (Table 7, SEQ ID NO:39), the mono-substituted (R18Q) analog (Table 7, SEQ ID NO:37) and as a control, the un-substituted (R11/R18) analog (Table 4, SEQ ID NO:7).

The target of data set [4] is T3, CGRP1 receptor (Rattus norvegicus, UniProt Q63118+Q9JJ74).
T3 construct: intradermal injection of hCGRP within a small, defined area of abdominal skin produced a 30-40% increase in local blood flow; from tissue; host or cells: living anaesthetised rat, abdominal skin
Put plainly: laser Doppler blood flowmetry assay (hαCGRP-induced skin blood flow). The data set is classed as in vivo. The settings on record: i.v., pre-treatment 5 minutes, 5 mg/kg. The protocol:
Methods. An automated laser Doppler blood flowmetry device is used (MoorLDI®; Moor Instrument, Devon, UK). The device was turned on prior to the start of experiments and allowed to warm up for 20 minutes. Blood flow data (in FLUX) were read from software records (see below).
For each rat, the experimental procedure was performed within a single day and was each rat was sacrificed on the same day immediately after the experiment was over. On an experiment day, each rat was weighed and administered 1 ml/kg (intramuscular injection in right leg) of an anesthetic cocktail consisting of Ketamine, Xylazine and PBS (5:3:2). […] The animal was then ready for the experiment.
Approximately 20 min after the injection of the anesthetic cocktail, baseline blood flow readings were collected for each animal. […]
After completion of baseline scanning, the rat was removed from the device. […] After a pre-determined interval, based on pharmacokinetic characteristics of the relevant CGRP peptide antagonist, agonist (human αCGRP; 0.1 μg, 50 μL; interdermal) was injected such that the point of entry of the needle (30 gauge) was remote from the marker dot but the intradermal injection bolus was centered under the dot. […]
In some cases, plasma IC50 values were calculated by performing least squares linear regression on log plasma concentration values (nM) vs. % change in blood flow values calculated for individual rats.

With `CC(=O)N[C@@H](Cc1c[nH]c2ccccc12)C(=O)N[C@H](C(=O)N[C@H](C(=O)N[C@@H](Cc1cnc[nH]1)C(=O)N[C@@H](CCCNC(N)=O)C(=O)N[C@@H](CC(C)C)C(=O)N[C@@H](C)C(=O)NCC(=O)N[C@@H](CC(C)C)C(=O)N[C@@H](CC(C)C)C(=O)N[C@@H](CO)C(=O)N[C@@H](CCCNC(N)=O)C(=O)N[C@@H](CO)C(=O)NCC(=O)NCC(=O)N[C@H](C(=O)N[C@H](C(=O)N[C@@H](CCCN=C(N)N)C(=O)N[C@@H](CCCCN)C(=O)N[C@@H](CC(N)=O)C(=O)N[C@@H](Cc1ccccc1)C(=O)N[C@H](C(=O)N1CCC[C@H]1C(=O)N[C@H](C(=O)N[C@@H](CC(=O)O)C(=O)N[C@H](C(=O)NCC(=O)N1CCC[C@H]1C(=O)N[C@@H](Cc1ccccc1)C(=O)N[C@@H](C)C(=O)N[C@@H](Cc1ccccc1)C(N)=O)C(C)C)[C@@H](C)O)C(C)C)C(C)C)C(C)C)[C@@H](C)O)C(C)C` [compound 31], the Ki – broadly, the equilibrium dissociation constant of an inhibitor or competing ligand from its target – in data set [1] is 0.46 nM. Besides, the IC50 (in general, the concentration that gives 50% inhibition) on CGRP1 receptor [2] is 1.8 nM. The “% Remaining” value in data set [3] (0 h) was found to be 100.0%. Besides, the amount remaining (usually the share of the starting amount still present when the sample was taken) at 0.5 h, 100 ng/ml in data set [3] (0.5 h) came out at 82.3%. In addition, the share remaining at 1 h, 100 ng/ml in data set [3] (1 h) was found to be 59%. Also, in data set [3] (2 h), the fraction remaining at 2 h, 100 ng/ml came out at 26.1%. The amount remaining at 3 h, 100 ng/ml in data set [3] (3 h) came to 18.5%. In addition, the amount remaining at 4 h, 100 ng/ml in data set [3] (4 h) turned out to be 10.1%. In data set [3] (5 h), this compound came in with a fraction remaining at 5 h, 100 ng/ml of 5.2%. In data set [3] (6 h), this compound showed a share remaining at 6 h, 100 ng/ml of 3.3%.

Regarding `CC(=O)N[C@@H](Cc1c[nH]c2ccccc12)C(=O)N[C@H](C(=O)N[C@H](C(=O)N[C@@H](Cc1c[nH]cn1)C(=O)N[C@@H](CCCNC(N)=O)C(=O)N[C@@H](CC(C)C)C(=O)N[C@@H](C)C(=O)NCC(=O)N[C@@H](CC(C)C)C(=O)N[C@@H](CC(C)C)C(=O)N[C@@H](CO)C(=O)N[C@@H](CCCNC(N)=O)C(=O)N[C@@H](CO)C(=O)NCC(=O)NCC(=O)N[C@H](C(=O)N[C@H](C(=O)N[C@@H](CCCNC(=N)N)C(=O)N[C@@H](CCCCN)C(=O)N[C@@H](CC(N)=O)C(=O)N[C@@H](Cc1ccccc1)C(=O)N[C@H](C(=O)N1CCC[C@H]1C(=O)N[C@H](C(=O)N[C@@H](CC(=O)O)C(=O)N[C@H](C(=O)NCC(=O)N1CCC[C@H]1C(=O)N[C@@H](Cc1ccccc1)C(=O)N[C@@H](C)C(=O)N[C@@H](Cc1ccccc1)C(N)=O)C(C)C)[C@@H](C)O)C(C)C)C(C)C)C(C)C)[C@@H](C)O)C(C)C` [Compound 31], at CGRP1 receptor [4], the “Efficacy observed (%) (at highest dose tested)” value turned out to be 100%.
